Ab-14 light chain CDR variants: yeast mating affinities

Target: peptide PDVDLGDISGINAS, taken from heptad repeat 2 (HR2) of SARS-CoV-2 spike.

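The parent was found by panning a naive human phage display library on the peptide. These sequences belong to a second round, designed from the earlier measurements on random variants of the parent. Their group label is 14L_GP_Gen (GP: Gaussian process model; Gen: genetic algorithm; a sequence that several methods proposed may carry one label only). Affinity was read by AlphaSeq, a pooled yeast mating assay with surface-displayed partners. Mating (16 h, 30 °C) was followed by selection of diploids and sequencing of their barcodes. A regression on co-assayed BCL2-family reference pairs converts the normalised counts of each replicate to an apparent Kd. The assay was run in six technical replicates.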

Parent scFv Ab-14: VH joined to VL by a (GGGGS)3 linker. Changes lie in the light chain CDRs alone.
VH: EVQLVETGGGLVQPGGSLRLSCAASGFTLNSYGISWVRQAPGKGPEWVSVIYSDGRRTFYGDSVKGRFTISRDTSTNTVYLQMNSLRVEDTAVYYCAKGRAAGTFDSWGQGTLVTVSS
VL: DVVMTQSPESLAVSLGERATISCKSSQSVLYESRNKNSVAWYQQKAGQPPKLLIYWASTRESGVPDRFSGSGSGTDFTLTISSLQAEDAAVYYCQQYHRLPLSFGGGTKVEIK

The parent's light chain CDRs are KSSQSVLYESRNKNSVA, WASTRES, QQYHRLPLS; each variant's own CDRs replace them letter for letter. The read-out is the apparent dissociation constant on a log10 scale (nM): the lower, the stronger. An entry "nd" has no value in the source: the pair was not observed among the diploids in that replicate. This suggests poor binding but is not conclusive. The range of this assay differs from that of the first round, and the authors advise against merging the two. In the paper, a design with two or fewer of six values counts as a poor binder. Of ten entries with the parent sequence, four were seen in most replicates (averages 0.34 to 2.37), three in one and three in none, so single entries are noisy. Empty control strains, which show no peptide, gave a signal in 4% of pairings with all light chain designs; the median was 2.64 and 95% of these signals were weaker than 1.59. No background was subtracted. For each scFv, signals with the empty controls are counted beside the result, with their mean in brackets.

| # | CDR-L1 | CDR-L2 | CDR-L3 | log10 Kd (nM) by replicate | signal with controls |
|---|---|---|---|---|---|
| 1 | KLSQSWLYESRNKNSVA | NASQREQ | QQYHRLPLS | 0.26 0.13 0.10 0.17 0.27 0.20 | 1 of 18 (2.65) |
| 2 | KVSQSHLYESRNKNSVA | DASTRLS | QQYHRLPLS | 0.04 0.16 0.25 -0.05 -0.05 0.21 | 1 of 18 (3.08) |
| 3 | KVSQSVDYESRNKNAVA | NASTRES | QQYHRLPLS | -0.10 0.23 -0.07 -0.19 -0.21 0.02 | 0 of 18 |
| 4 | KLQQSQGYESRNKNSVA | NASTRES | QQYHRLPLS | 0.30 0.16 0.13 0.18 0.16 0.14 | 2 of 18 (3.15) |
| 5 | KLSQQDLYESRNKNSVA | GASTRES | QQYHRLPLS | -0.08 -0.28 -0.16 -0.45 -0.41 -0.17 | 1 of 18 (2.77) |
| 6 | KLSQSVLYESRAKNSVA | NASTRLS | QQYHRLPLS | 0.05 0.06 -0.18 -0.15 -0.08 -0.05 | 1 of 18 (5.06) |
| 7 | KMSQSMLYESRNKNSVA | NASQRES | QQYHRLPLS | -0.33 -0.24 -0.07 -0.57 -0.34 0.02 | 0 of 18 |
| 8 | KLSQSVLYESRNKNSVA | HASTRCS | QQYHRLPLS | 0.39 0.17 0.03 0.05 0.31 0.29 | 2 of 18 (2.93) |
| 9 | KLSQQVEYESRNKNSVA | NASTRES | QQYHRLPLS | 0.52 0.34 0.42 0.28 0.43 0.35 | 3 of 18 (2.46) |
| 10 | KFSQSWLYESRNKNSVA | NASQRMS | QQYHRLPLS | 0.26 0.11 0.08 0.15 0.23 0.35 | 4 of 18 (2.91) |
| 11 | KVSQSQLYESRNKNSVA | NASTRMS | QQYHRLPLS | 0.26 0.14 0.00 0.15 0.22 0.38 | 4 of 18 (2.76) |
| 12 | KLSQSELYESRNKNSVA | QASTRES | QQYHRLPLS | 0.28 0.10 -0.14 0.09 -0.09 0.13 | 0 of 18 |
| 13 | KLSQSVLYESRNSNSVA | NASTREQ | QQYHRLPLS | -0.15 -0.39 -0.42 -0.68 -0.46 -0.13 | 1 of 18 (2.22) |
| 14 | KLSQSQLYESRNKNSVA | NASERES | QQYHRLPLS | 0.17 -0.24 0.18 -0.23 -0.32 0.01 | 1 of 18 (3.78) |
| 15 | KLSQSELYESRNKNSVA | SASTRYS | QQYHRLPLS | 0.04 -0.04 -0.16 -0.29 -0.28 0.15 | 0 of 18 |
| 16 | KLSQSVLYESRNFNNVA | DASTRES | QQYHRLPLS | -0.32 -0.34 -0.33 -0.65 -0.49 -0.25 | 3 of 18 (2.93) |
| 17 | KLQQSNLYESRNKNSVA | GASTRES | QQYHRLPLS | -0.08 -0.35 -0.51 -0.43 -0.19 -0.29 | 2 of 18 (3.51) |
| 18 | KLSQSWLYESRNKNAVA | NASTRES | QQYHRLPLS | -0.15 -0.36 -0.46 -0.24 -0.29 -0.17 | 3 of 18 (2.54) |
| 19 | KLSQSMWYESRNKNSVA | NASTRLS | QQYHRLPLS | -0.27 -0.51 -0.39 -0.85 -0.17 -0.36 | 0 of 18 |
| 20 | KLSQSHLYESRNKNSVA | NASTRED | QQYHRLPLS | nd nd nd nd nd nd | 0 of 18 |
| 21 | KLEQSVLYESRNKNSVA | GASTRES | QQYHRLPLS | 0.46 0.23 0.04 0.26 0.33 0.23 | 1 of 18 (2.60) |
| 22 | KLQQSDLYESRNKNSVA | NASTRMS | QQYHRLPLS | -0.27 -0.46 -0.24 -0.34 -0.44 0.02 | 0 of 18 |
| 23 | KLSQSWGYESRNKNSVA | NASQRES | QQYHRLPLS | 0.05 0.10 -0.12 -0.27 0.05 0.11 | 2 of 18 (2.78) |
| 24 | KLSQSQLYESRNKNNVA | NASTRMS | QQYHRLPLS | -0.26 -0.39 -0.36 -0.39 -0.45 -0.28 | 0 of 18 |
| 25 | KLSQAVLYESRNKNSVA | DASTRES | QQYHRLPLS | -0.61 -0.33 -0.45 -0.55 -0.18 -0.18 | 1 of 18 (1.84) |
| 26 | KLSWSWLYESRNKNSVA | NASQRES | QQYHRLPLS | -0.34 -0.40 0.07 -0.51 -0.16 -0.06 | 0 of 18 |
| 27 | VLSQSVLYESRNKNSVA | HASTRES | QQYHRLPLS | 0.11 0.07 -0.02 0.24 0.10 0.16 | 0 of 18 |
| 28 | KQSQSVLMESRNKNSVA | EASTRES | QQYHRLPLS | -0.02 0.08 -0.09 -0.23 -0.22 0.10 | 2 of 18 (2.80) |
| 29 | KLSQSWLYESRNSNSVA | NASTRES | QQYHRLPLS | 0.01 -0.03 0.13 0.04 0.14 0.08 | 1 of 18 (1.91) |
| 30 | KLSQSDLYESRNKNSVA | EASTRES | QDYHRLPLS | 0.59 0.39 0.37 0.17 0.55 0.57 | 2 of 18 (3.20) |
| 31 | KVMQSVLYESRNKNSVA | NASTRES | QQYHRLPLS | -0.12 -0.39 -0.43 -0.32 -0.20 -0.11 | 0 of 18 |
| 32 | KLSQSYLYESRNKNSVA | NASTRES | QCYHRLPLS | 1.12 0.78 0.67 0.85 0.66 1.31 | 1 of 18 (3.76) |
| 33 | KLSQSWLYESRNKNSVA | NASTRES | QDYHRLPLS | -0.43 -0.35 -0.44 -0.37 -0.45 -0.39 | 0 of 18 |
| 34 | KLSQSMLYESRNKNSVA | NASTRLM | QQYHRLPLS | -0.01 -0.06 -0.34 -0.33 -0.17 -0.20 | 2 of 18 (2.82) |
| 35 | KLSQSMLYESRNKNAVA | NASTRES | QQYHRLPLS | -0.07 -0.21 -0.15 -0.25 -0.24 -0.06 | 2 of 18 (3.53) |
| 36 | KLDQSVLYESRNKNSVA | HASTRES | QQYHRLPLS | 0.03 -0.38 -0.19 -0.12 -0.15 -0.13 | 1 of 18 (2.42) |
| 37 | FLSQSELYESRNKNSVA | NASTRLS | QQYHRLPLS | 0.03 0.11 -0.15 -0.18 -0.09 0.23 | 3 of 18 (3.75) |
| 38 | KLSQSELYESRWKNSVA | NASQRES | QQYHRLPLS | 0.59 0.30 0.28 0.23 0.07 0.34 | 1 of 18 (2.55) |
| 39 | KLSQSDLYESRNKNSVA | GASTRES | QDYHRLPLS | 0.32 0.23 0.18 0.39 0.36 0.61 | 2 of 18 (3.98) |
| 40 | KLSQSVMMESRNKNSVA | NASTRES | QQYHRLPLS | -0.18 -0.38 -0.37 -0.41 -0.47 -0.27 | 2 of 18 (3.57) |
| 41 | KLSQSVLYESRNWNNVA | EASTRES | QQYHRLPLS | -0.21 -0.11 -0.44 -0.63 -0.06 -0.23 | 2 of 18 (1.17) |
| 42 | KLQFSWLYESRNKNSVA | NASQRES | QQYHRLPLS | -0.03 -0.25 -0.26 -0.37 -0.28 -0.32 | 1 of 18 (2.93) |
| 43 | KLQQQWLYESRNKNSVA | NASTRES | QQYHRLPLS | 0.12 -0.20 -0.08 -0.04 -0.27 -0.05 | 3 of 18 (2.20) |
| 44 | KLSQSWLYESRNKNSVA | NASQREV | QQYHRLPLS | -0.07 -0.05 -0.24 -0.31 -0.16 0.06 | 0 of 18 |
| 45 | KLSQSEEYESRNKNSVA | NASQRES | QQYHRLPLS | 0.10 -0.09 -0.15 -0.34 -0.22 -0.12 | 1 of 18 (1.88) |
| 46 | KLPQSVLYESRNKNSVA | DASTRLS | QQYHRLPLS | -0.07 -0.01 -0.26 -0.21 -0.31 -0.07 | 1 of 18 (2.25) |
| 47 | KFSQSVMMESRNKNSVA | EASTRES | QQYHRLPLS | nd nd nd nd nd 2.59 | 0 of 18 |

Values reported by Li et al. 2023, doi:10.1038/s41467-023-39022-2 (FLAb copy).